Biological target: Recombinant N-hexa-His-tagged human Hsp70 (HSPA1A) (human) (UniProt P0DMV8)
Assay: SPR; Biacore X100, CM5 chip; Hsp70 immobilised by amine coupling; αSyn as analyte at 0-320 µM; 15°C; PBS, 0.05% Surfactant P20, 2 mM MgCl2, 2.5 mM ATP; steady-state fit, 1:1 model

Substance “Human Wt α-Synuclein (from UniProt P37840 1-140) (natural protein; other documents disagree on this pair)” has a Kd of 192 µM.

Source: publication PMC4386917
